{"source": "patent US20040210047A1", "about": "“Methallyl sucroses and their epoxy derivatives” (priority 2003, published 2004)", "key": {"[1]": {"test_system": "Salmonella Typhimurium TA-98", "assay": "Modified Maron-Ames test, strain TA-98", "conditions": "tester strain TA-98, all concentrations", "description": "(§1) Serial dilutions (100 fold) were made with DMSO to obtain samples with dilution factors of 10^−3, 10^−5, and 10^−7. The assays were performed according to the modified methods of Maron and Ames (Maron D. R. and Ames, B. N. Mutation Research, 1980, Vol. 113, 173-215) using two strains of Salmonella Typhimurium TA-98 and TA-100, with and without metabolic activation of the substrate. The male rat microsomal homogenate S-9 was used to effect metabolic activation of the substrate. TA-98 and TA-100 were cultured in Oxoid Nutrient Broth No.2 at 37° C. for 16 hours using a gyratory shaker (200-250 rpm).\n(§2) Compounds were assayed after the bacteria tested positive for the viability-related criteria above. Two mL top agar was placed in sterile culture tubes and kept at ˜40° C. in a water bath. Samples (100 μL) were placed in each tube (3 tubes per sample) and 100 μL of either strain TA-98 or TA-100 was added. When required, the S-9 homogenate (500 μL) was then added. The tubes were mixed and poured into minimal glucose agar plates. The plates were left at room temperature until the top agar solidified. Then, they were inverted and incubated at 37° C. for 48 hours. After incubation, revertant colonies were counted. Samples that presented greater than 2 times the number of revertant colonies were considered mutagenic. (See FIGS. 9(a) through (f))."}, "[2]": {"test_system": "Salmonella Typhimurium TA-100", "assay": "Modified Maron-Ames test, strain TA-100", "description": "as §1, with “Serial dilutions (100 fold) were made with DMSO to obtain samples with dilution factors of 10^−3, 10^−5, and 10^−7.” left out\nas §2"}}}
{"substance": "epoxymethallyl sucrose [EMS]", "values": [{"measurement": "cytotoxicity and mutagenicity, overall conclusion", "setting": "[1]", "result": "neither cytotoxic nor mutagenic"}, {"measurement": "cytotoxicity relative to DGEBA", "setting": "[2]; Maron-Ames tests, 10 mg/mL DMSO, strain not stated", "result": "about one-tenth"}, {"measurement": "cytotoxicity and mutagenicity", "setting": "[2]; dilution factors beyond 10^−1", "result": "neither cytotoxic nor mutagenic"}, {"measurement": "cytotoxicity and mutagenicity, summary statement", "setting": "[2]; stated advantage over the state of the art, strain not stated", "result": "negligible cytotoxicity and mutagenicity"}]}
